# Values of other authors as cited in US20260031189A1, “METHOD AND SYSTEMS FOR PREDICTION OF HLA CLASS II-SPECIFIC EPITOPES AND CHARACTERIZATION OF CD4+ T CELLS” (BioNTech US Inc., priority 2022, published 2026).
# Conditions: more than 25 clinical trials; cited from earlier work
substance,measurement,value
poly-ICLC,toxicity profile,relatively benign toxicity profile
